Measurements reported in patent US20240174727A1, “LONG-ACTING NATRIURETIC PEPTIDES AND USES THEREOF” (Eli Lilly and Company, priority 2022, published 2024).

Target: T1, human NPRA (Homo sapiens, UniProt P16066)
T1 construct: Full-Length cDNA Cloning and Generation of Cell Lines Overexpressing Natriuretic Peptide Receptors (NPRs); expressed in transfected cells; host or cells: Jump-in T-Rex HEK293 cells, pJTI R4 CMV-TO MCS pA vector, tetracycline induction
T1 sequence (P16066 33-1061): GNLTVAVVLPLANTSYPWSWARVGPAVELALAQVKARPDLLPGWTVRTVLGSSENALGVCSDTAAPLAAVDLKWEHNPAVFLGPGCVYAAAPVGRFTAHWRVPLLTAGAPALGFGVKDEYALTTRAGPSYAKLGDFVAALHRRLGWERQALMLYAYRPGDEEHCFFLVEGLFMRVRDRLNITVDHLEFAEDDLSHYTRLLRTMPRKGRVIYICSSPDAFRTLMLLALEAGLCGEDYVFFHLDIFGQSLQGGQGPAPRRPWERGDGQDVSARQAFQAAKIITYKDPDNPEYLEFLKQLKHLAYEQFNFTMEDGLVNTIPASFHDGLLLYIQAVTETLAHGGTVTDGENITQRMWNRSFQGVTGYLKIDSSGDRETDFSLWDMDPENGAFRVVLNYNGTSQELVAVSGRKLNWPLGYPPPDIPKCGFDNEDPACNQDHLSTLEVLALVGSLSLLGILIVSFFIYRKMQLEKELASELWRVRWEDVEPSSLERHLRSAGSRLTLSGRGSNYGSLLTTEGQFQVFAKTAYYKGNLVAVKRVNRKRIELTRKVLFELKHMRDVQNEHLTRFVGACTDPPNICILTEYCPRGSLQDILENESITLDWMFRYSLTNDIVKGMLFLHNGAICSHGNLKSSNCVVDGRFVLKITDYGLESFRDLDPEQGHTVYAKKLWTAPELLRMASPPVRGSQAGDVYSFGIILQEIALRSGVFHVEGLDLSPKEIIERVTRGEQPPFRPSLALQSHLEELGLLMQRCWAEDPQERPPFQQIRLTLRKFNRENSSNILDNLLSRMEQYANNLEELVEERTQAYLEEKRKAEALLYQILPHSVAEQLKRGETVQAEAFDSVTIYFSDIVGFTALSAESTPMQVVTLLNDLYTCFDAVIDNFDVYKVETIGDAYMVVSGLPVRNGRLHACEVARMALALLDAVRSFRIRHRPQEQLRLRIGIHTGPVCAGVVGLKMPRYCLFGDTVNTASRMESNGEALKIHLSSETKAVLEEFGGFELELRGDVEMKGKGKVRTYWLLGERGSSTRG
Test: Human NPRA cGMP activity assay (HTRF) in HEK293 cells overexpressing NPRA
Assay type: cell-based
Procedure: All sequences were verified by full-length sequencing performed by ACGT DNA Sequencing Services (Wheeling, IL). The target cDNA was cloned into pJTI R4 CMV-TO MCS pA vector and then co-transfected with pJT1R4 Int vector into Jump-in™ T-Rex™ HEK293 cells for mammalian inducible expression using Jump-in™ T-Rex™ HEK293 kit and Lipofectamine LTX and Plus Reagent following manufacturer's protocols, as briefly described below.
Jump-in™ T-Rex™ HEK293 cells were plated in a BioCOAT® poly-D-lysine coated 6-well plate (Becton Dickinson, cat no. 354413) at 1 million cells/well in 2 mL culture medium and incubated for 18 h at 37° C. and 5% CO2 to 50-70% confluence. A cDNA mix was made in a 50 mL tube by adding 1.5 μg target cDNA, 1.5 μg pJT1R4 Int vector, 3 μL Plus Reagent, and 300 μL Opti-MEM I sequentially into the tube. A reagent mix was made in a separate 50 mL tube by adding 7.5 μL Lipofectamine LTX into 300 μL Opti-MEM I. The mixtures were incubated for 5 min at room temperature. The cDNA mix was then transferred into the reagent mix, mixed well, and incubated for additional 30 min at room temperature. A 500 μL of cDNA/Lipofectamine complex was then transferred to the wells of the cell plate in which the culture medium was changed to 2 mL of transfection medium containing DMEM with 4.5 g/L D-glucose supplemented with 10% FBS-HI and 20 mM HEPES. Transfected cells were cultured for 48 h in an incubator at 37° C. and 5% CO2. A subclone or pool from each overexpressing cell line was maintained in culture medium with the addition of 2 mg/mL G418 sulfate for the clone selection based on its built-in resistance to G418 sulfate for at least 3 weeks with medium changed every 2-3 days.
NPRs were overexpressed in T-Rex™ HEK293 cells following the induction with 300 ng/mL tetracycline in culture medium for 48 h. Induced cell lines in an exponential growth phase were treated with 0.05% trypsin-EDTA for a few seconds at room temperature, harvested in cell medium containing FBS to neutralize the trypsin, counted, and cryopreserved at the density of 2 million cells/mL in cell preservation solution containing FBS-HI with 5% DMSO. Cryopreserved cells were stored at −80° C. for a few days prior to transferring to a liquid nitrogen tank. Induced cell lines were then used for suspension assays to measure the activity of polypeptides to stimulate cGMP production in cGMP assays or for the preparation of cell membranes to measure the binding activity of polypeptides in competitive radioligand binding assays, as described below.
Test polypeptides were added starting at 10 μM concentration and at 10-fold decreasing concentrations to obtain 8-point concentration-response curves (i.e., 10 μM to 1 pM). The quantity of cGMP generated was detected using HTRF® technology and normalized to maximum amount produced by 100 nM amidated rat ANP and the minimum amount produced by assay buffer. Detailed steps are outlined below.
Stock solutions of test polypeptides (2 mM) dissolved in DMSO were first diluted 100-fold in assay buffer containing HBSS with Ca^2+ and Mg^2+, 5 mM HEPES, 0.5 mM IBMX, and 0.1% BSA or 0.1% casein (pH 7.4). The polypeptides were further serially diluted in 1:10 dilution steps in assay buffer containing 0.1% BSA or 0.1% casein to generate 8-point 2× working stock solutions ranging from 20 μM to […].
A 10 μL cell suspension containing 4000 cells was plated in Costar® half-area white opaque 96-well plates (Corning, cat no. 3693). Then 10 μL of assay buffer (basal activity), 200 nM of amidated rat ANP (maximum activity) or 2× working stock solutions of test polypeptides were transferred into the plate. Final concentration of DMSO in each well was 0.5%. The plate was shaken for 15 sec and then incubated for 40 min at room temperature.
The cGMP generated was measured using cGMP kit following the manufacturer's directions, as described below.

[1] = cGMP Assay (EC50, pM) w/Casein hNPRA, assay buffer with 0.1% casein

| SMILES | EC50 [1] | EC50 (cGMP Assay (EC50, pM) w/BSA hNPRA, assay buffer with 0.1% BSA) |
| --- | --- | --- |
| CC[C@H](C)[C@@H]1NC(=O)[C@H](CCCNC(=N)N)NC(=O)[C@H](CC(=O)O)NC(=O)[C@H]([C@@H](C)CC)NC(=O)[C@H](CCCNC(=N)N)NC(=O)CNC(=O)CNC(=O)[C@H](Cc2ccccc2)NC(=O)[C@@H](NC(=O)[C@H](CO)NC(=O)[C@H](CO)NC(=O)[C@H](CCCNC(=N)N)NC(=O)[C@H](CCCNC(=N)N)NC(=O)[C@H](Cc2ccncc2)NC(=O)[C@H](CO)NC(=O)CNC(=O)[C@H](CCCCN)NC(=O)[C@H](CCC(=O)O)NC(=O)[C@H](CCCCN)NC(=O)[C@H](CCC(=O)O)NC(=O)[C@H](CCCCN)NC(=O)[C@H](CCC(=O)O)NC(=O)CC[C@H](NC(=O)CCCCCCCCCCCCCCCCCCC(=O)O)C(=O)O)CSSC[C@@H](C(=O)N2CCC[C@H]2C(=O)N[C@@H](CO)C(=O)N[C@@H](Cc2ccccc2)C(=O)N[C@@H](CCCNC(=N)N)C(=O)N[C@@H](Cc2ccncc2)C(=O)NCC(=O)NCC(=O)N2CCC[C@H]2C(=O)N[C@@H](CO)C(=O)N[C@@H](CO)C(=O)NCC(=O)N[C@@H](C)C(=O)N2CCC[C@H]2C(=O)N2CCC[C@H]2C(=O)N2CCC[C@H]2C(=O)N[C@@H](CO)C(N)=O)NC(=O)CNC(=O)[C@H](CC(C)C)NC(=O)CNC(=O)[C@H](CO)NC(=O)[C@H](CCC(N)=O)NC(=O)[C@H](C)NC(=O)CNC1=O [Example 23] | 3490 pM |  |
| CC[C@H](C)[C@@H]1NC(=O)[C@H](CCCNC(=N)N)NC(=O)[C@H](CC(=O)O)NC(=O)[C@H]([C@@H](C)CC)NC(=O)[C@H](CCCNC(=N)N)NC(=O)CNC(=O)CNC(=O)[C@H](Cc2ccccc2)NC(=O)[C@@H](NC(=O)[C@H](CO)NC(=O)[C@H](CO)NC(=O)[C@H](CCCNC(=N)N)NC(=O)[C@H](CCCCN)NC(=O)[C@H](Cc2ccncc2)NC(=O)[C@H](CO)NC(=O)CNC(=O)[C@H](CCCCN)NC(=O)[C@H](CCC(=O)O)NC(=O)[C@H](CCCCN)NC(=O)[C@H](CCC(=O)O)NC(=O)[C@H](CCCCN)NC(=O)[C@H](CCC(=O)O)NC(=O)CC[C@H](NC(=O)CCCCCCCCCCCCCCCCCCC(=O)O)C(=O)O)CSSC[C@@H](C(=O)N2CCC[C@H]2C(=O)N[C@@H](CO)C(=O)N[C@@H](Cc2ccccc2)C(=O)N[C@@H](CCCNC(=N)N)C(=O)N[C@@H](Cc2c[nH]cn2)C(=O)NCC(=O)NCC(=O)N2CCC[C@H]2C(=O)N[C@@H](CO)C(=O)N[C@@H](CO)C(=O)NCC(=O)N[C@@H](C)C(=O)N2CCC[C@H]2C(=O)N2CCC[C@H]2C(=O)N2CCC[C@H]2C(=O)N[C@@H](CO)C(N)=O)NC(=O)CNC(=O)[C@H](CC(C)C)NC(=O)CNC(=O)[C@H](CO)NC(=O)[C@H](CCC(N)=O)NC(=O)[C@H](Cc2c[nH]cn2)NC(=O)CNC1=O [Example 35] | 118 pM |  |
| CC[C@H](C)[C@@H]1NC(=O)[C@H](CCCNC(=N)N)NC(=O)[C@H](CC(=O)O)NC(=O)[C@H]([C@@H](C)CC)NC(=O)[C@H](CCCCN)NC(=O)CNC(=O)CNC(=O)[C@H](Cc2ccccc2)NC(=O)[C@@H](NC(=O)[C@H](CO)NC(=O)[C@H](CO)NC(=O)[C@H](CCCNC(=N)N)NC(=O)[C@H](CCCNC(=N)N)NC(=O)[C@H](Cc2ccncc2)NC(=O)[C@H](CO)NC(=O)CNC(=O)[C@H](CCCCN)NC(=O)[C@H](CCC(=O)O)NC(=O)[C@H](CCCCN)NC(=O)[C@H](CCC(=O)O)NC(=O)[C@H](CCCCN)NC(=O)[C@H](CCC(=O)O)NC(=O)CC[C@H](NC(=O)CCCCCCCCCCCCCCCCCCC(=O)O)C(=O)O)CSSC[C@@H](C(=O)N2CCC[C@H]2C(=O)N[C@@H](CO)C(=O)N[C@@H](Cc2ccccc2)C(=O)N[C@@H](CCCNC(=N)N)C(=O)N[C@@H](Cc2c[nH]cn2)C(=O)NCC(=O)NCC(=O)N2CCC[C@H]2C(=O)N[C@@H](CO)C(=O)N[C@@H](CO)C(=O)NCC(=O)N[C@@H](C)C(=O)N2CCC[C@H]2C(=O)N2CCC[C@H]2C(=O)N2CCC[C@H]2C(=O)N[C@@H](CO)C(N)=O)NC(=O)CNC(=O)[C@H](CC(C)C)NC(=O)CNC(=O)[C@H](CO)NC(=O)[C@H](CCC(N)=O)NC(=O)[C@H](Cc2c[nH]cn2)NC(=O)CNC1=O [Example 36] | 118 pM |  |
| CC[C@H](C)[C@@H]1NC(=O)[C@H](CCCNC(=N)N)NC(=O)[C@H](CC(=O)O)NC(=O)[C@H]([C@@H](C)CC)NC(=O)[C@H](CCCCN)NC(=O)CNC(=O)CNC(=O)[C@H](Cc2ccccc2)NC(=O)[C@@H](NC(=O)[C@H](CO)NC(=O)[C@H](CO)NC(=O)[C@H](CCCNC(=N)N)NC(=O)CNC(=O)[C@H](CCCCN)NC(=O)[C@H](CCC(=O)O)NC(=O)CNC(=O)[C@H](CCCCN)NC(=O)[C@H](CCC(=O)O)NC(=O)[C@H](CCCCN)NC(=O)[C@H](CCC(=O)O)NC(=O)[C@H](CCCCN)NC(=O)[C@H](CCC(=O)O)NC(=O)CC[C@H](NC(=O)CCCCCCCCCCCCCCCCCCC(=O)O)C(=O)O)CSSC[C@@H](C(=O)N2CCC[C@H]2C(=O)N[C@@H](CO)C(=O)N[C@@H](Cc2ccccc2)C(=O)N[C@@H](CCCNC(=N)N)C(=O)N[C@@H](Cc2c[nH]cn2)C(=O)NCC(=O)NCC(=O)N2CCC[C@H]2C(=O)N[C@@H](CO)C(=O)N[C@@H](CO)C(=O)NCC(=O)N[C@@H](C)C(=O)N2CCC[C@H]2C(=O)N2CCC[C@H]2C(=O)N2CCC[C@H]2C(=O)N[C@@H](CO)C(N)=O)NC(=O)CNC(=O)[C@H](CC(C)C)NC(=O)CNC(=O)[C@H](CO)NC(=O)[C@H](Cc2ccc(O)cc2)NC(=O)[C@H](Cc2c[nH]cn2)NC(=O)CNC1=O [Example 45] |  | 25200 pM |
